Reference: patent publication US10206867B2, “Alcoholic extract of aerial parts of Solidago virgaurea subsp. alpestris, method of production thereof, and cosmetic or dermatological composition containing it” (CHANEL PARFUMS BEAUTE, priority 2015, dated 2019)

Experiment: Antioxidant activity, pholasin ABEL chemiluminescence test, halogenated radicals
Format: biochemical
Procedure: To determine the capacity of Goldenrod for trapping free radicals (hydroxyls, halogenated derivatives, peroxynitrites and superoxide radicals), i.e. its antioxidant capacity, chemiluminescence tests dependent on pholasin ABEL®1 were used (Knight Scientific Limited) according to the manufacturer's instructions. Briefly, various concentrations of ingredients were incubated with pholasin, a well known photoprotein that emits light when it binds to free radicals. D-Mannitol, albumin, vitamin E and L-ascorbic acid were used as positive controls for determining the capacity of the extract for trapping hydroxyl radicals, halogenated derivatives, peroxynitrites and superoxides, respectively.
All the determinations were repeated 5 times and the mean values were determined. The antioxidant capacity of the ingredient is expressed as the percentage reduction of the luminescence peak of Pholasin observed during the assay in the presence and in the absence of the active ingredient ±SD, with the untreated control represented at 0%.

## Albumin: positive control for trapping halogenated derivatives
0.25 mg/ml
  Mean % inhibition: 64.9 ± 13.9%
0.5 mg/ml
  Mean % inhibition: 82.3 ± 8.9%
0.75 mg/ml
  Mean % inhibition: 88.5 ± 5.7%
1 mg/ml
  Mean % inhibition: 92.1 ± 3.3%
1.25 mg/ml
  Mean % inhibition: 93.9 ± 0.69%
